In BindingDB's records for doi:10.1016/s0960-894x(01)00484-x (Friedrich-Alexander University, 2001):
Counter-ions that a name gives are not always drawn.

Legend:
[1] = Agonist effect on the Dopamine D4.2 receptor was determined by evaluating effective concentration causing stimulation of mitogenesis
[2] = as above; remark: listed apart in the source

## c1ccc(C2=N[C@@H](CN3CCN(c4ccccc4)CC3)CN2)cc1 [1-Phenyl-4-((R)-2-phenyl-4,5-dihydro-1H-imidazol-4-ylmethyl)-piperazine; hydrochloride]
[1]
  EC50: 31 nM
[2]
  EC50: 31 nM
